From US20130129722A1

Chains of the proteins cited; added tags and fusions are not shown. Chains listed by the source or under a name are the forms on record and can include a tag or linker.
Dimeric Mouse Ang-2FD conjugated to human IgG1 (mouse (Mus musculus)), one chain, as listed by the source limits assumed: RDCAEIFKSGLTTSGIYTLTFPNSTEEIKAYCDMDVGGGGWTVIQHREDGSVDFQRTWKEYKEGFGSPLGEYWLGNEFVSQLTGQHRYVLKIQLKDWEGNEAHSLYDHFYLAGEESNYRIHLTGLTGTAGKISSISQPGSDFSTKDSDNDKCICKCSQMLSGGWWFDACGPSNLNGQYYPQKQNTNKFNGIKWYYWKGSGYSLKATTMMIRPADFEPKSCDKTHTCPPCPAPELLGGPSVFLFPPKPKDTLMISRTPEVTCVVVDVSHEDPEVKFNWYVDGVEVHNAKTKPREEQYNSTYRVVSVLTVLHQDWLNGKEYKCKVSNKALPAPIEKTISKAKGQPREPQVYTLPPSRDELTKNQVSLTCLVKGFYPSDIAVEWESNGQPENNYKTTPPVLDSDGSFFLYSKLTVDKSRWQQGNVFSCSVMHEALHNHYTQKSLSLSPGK

Target: Dimeric Mouse Ang-2FD conjugated to human IgG1 (mouse (Mus musculus))
Test: SPR, human IgG1 antibody captured

B1: H1H744N (antibody, V domains shown)
VH: QVQLVQSGVEVKKPGASVKVSCKTSGYTFSNNGFSWVRQAPGQGLEWLGWISGYNGNTNYAQKFQGRVTMTTDTSTSTAYMELRTLRSDDTAVYYCARDQDYSNFHWLDPWGQGTLVTVAS
VL: DIQMTQSPSSVSASVGDRVIITCRASQGLSSWLAWYQQKPGTAPKLLIHSASSLQTGVPSRFSGSGSGTEFALTINSLQPEDFGTYYCQQANSFPLTFGGGTRVEIK
  Kd: 158 pM
